# Measured values as given in PubChem BioAssay AID720648 (The Scripps Research Institute Molecular Screening Center, 2013).
# By UniProt entry, the sequences of proteins in these tests, tags left out. Residues count along the entry.
# UniProt P78536, 215-824 limits assumed: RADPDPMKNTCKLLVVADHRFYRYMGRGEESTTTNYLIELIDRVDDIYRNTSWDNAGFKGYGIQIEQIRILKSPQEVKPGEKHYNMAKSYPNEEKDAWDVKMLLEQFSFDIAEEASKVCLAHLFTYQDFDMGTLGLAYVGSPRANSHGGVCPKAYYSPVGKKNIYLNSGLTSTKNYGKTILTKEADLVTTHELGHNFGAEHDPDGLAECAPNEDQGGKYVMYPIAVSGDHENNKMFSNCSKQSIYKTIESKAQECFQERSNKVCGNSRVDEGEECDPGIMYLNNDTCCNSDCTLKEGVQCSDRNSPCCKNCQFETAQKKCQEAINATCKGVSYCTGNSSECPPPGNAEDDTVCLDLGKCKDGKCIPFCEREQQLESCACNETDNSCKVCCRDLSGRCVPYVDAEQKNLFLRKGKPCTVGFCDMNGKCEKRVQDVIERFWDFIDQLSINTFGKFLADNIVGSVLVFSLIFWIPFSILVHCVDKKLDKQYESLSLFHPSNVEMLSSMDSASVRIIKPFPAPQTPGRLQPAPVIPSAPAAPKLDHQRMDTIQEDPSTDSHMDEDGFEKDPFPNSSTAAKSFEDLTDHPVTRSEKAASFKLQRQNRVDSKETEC
# Only a part is listed here, and it is no random draw. Some of these compounds have results that are not shown, active ones among them. Activity calls are given as the source filed them.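 The calls were made as follows: active = inhibition above the mean of compounds lying between control limits plus 3 SD, set per campaign (cut at about 8.5% in these data); inactive = the rest.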
# Target: Disintegrin and metalloproteinase domain-containing protein 17 (Homo sapiens) (UniProt P78536)
# Test: ADAM17 inhibitors, primary screen, biochemical, QFRET (AID 720648);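 also: 0% = DMSO-only wells as the low control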
# Conditions: recombinant ADAM17, EDANS/DABCYL FRET peptide cleavage; at 6.95 µM; stronger effect = higher value
row,Structure (SMILES),inhibition
1,CN(C)c1cccc(C(=O)NCC2(N(C)C)CCCCC2)c1,inactive: -11.9%
2,O=C(OCCN1CCCC1)C(O)(c1ccccc1)c1ccccc1,inactive: -3.35%
3,CC(C)Oc1ccc(C(=O)NCC2(N(C)C)CCCCC2)cc1,inactive: -10.1%
4,COc1ccc(Br)c(C(=O)NCC2(N3CCCCC3)CCCCC2)c1,inactive: -4.53%
5,C=C(C)C#CC(O)(C(=O)OC1CCN(C)CC1)c1ccccc1 (stereo unspecified),inactive: 1.32%
6,O=C(OC1CN2CCC1CC2)C(CO)(c1ccccc1)c1ccccc1 (stereo unspecified),inactive: -3.54%
7,O=C(NCC1(N2CCCCC2)CCCCC1)c1cccc(Cl)c1,inactive: 2.37%
8,COc1ccc(Cl)cc1C(=O)NCC1(N(C)C)CCCCC1,inactive: 0.69%
9,COc1cccc(C(=O)NCC2(N3CCCCC3)CCCCC2)c1,inactive: -6.48%
10,COc1cc(C(=O)NCC2(N(C)C)CCCCC2)c([N+](=O)[O-])cc1OC,inactive: -7.08%
11,CN(C)C1(CNC(=O)c2ccc(Br)cc2)CCCCC1,inactive: -5.6%
12,O=C(NCC1(N2CCCCC2)CCCCC1)c1cccc(Br)c1,inactive: -2.69%
13,CCN1CCCC(OC(=O)C2(O)c3ccccc3C=Cc3ccccc32)C1 (stereo unspecified),inactive: -4.75%
14,Cc1cc(C(=O)NCC2(N3CCCCC3)CCCCC2)ccc1[N+](=O)[O-],inactive: -0.94%
15,COc1ccc(C(=O)NCC2(N(C)C)CCCCC2)cc1,inactive: 1.38%
16,O=C(NCC1(N2CCCCC2)CCCCC1)c1cc(F)c(F)cc1Cl,inactive: -1.87%
17,C=CCN1CCN(CCOC(=O)C(O)(c2ccccc2)c2ccccc2)CC1,inactive: -0.88%
18,CN(C)c1ccc(C(=O)NCC2(N(C)C)CCCCC2)cc1,inactive: 0.24%
19,CN(C)C1CCCC1OC(=O)C(O)(c1ccccc1)c1ccccc1 (stereo unspecified),inactive: -0.89%
20,Cc1ccccc1C(=O)NCC1(N2CCCCC2)CCCCC1,inactive: 0.76%
21,Cc1ccc(C(=O)NCC2(N3CCCCC3)CCCCC2)cc1,inactive: 0.25%
22,CC(C)N1C(=O)CC2(CCN(CCOC(=O)C(O)(c3ccccc3)c3ccccc3)CC2)C1=O,inactive: -8.88%
23,COc1cc(SC)ccc1C(=O)NCC1(N(C)C)CCCCC1,inactive: -2.71%
24,CCN(CC)CC(C)C(C)OC(=O)C(O)(c1ccccc1)c1ccccc1 (stereo unspecified),inactive: -2.5%
25,CN1[C@@H]2CC[C@H]1CC(OC(=O)C(O)(c1ccccc1)c1ccccc1)C2 (stereo partly specified),inactive: -2.87%
26,O=C(NCC1(N2CCCCC2)CCCCC1)c1cc([N+](=O)[O-])ccc1Cl,inactive: -3.03%
